Reference: patent US7906510B2, “Amide derivative and pharmaceutical composition containing the same” (Dainippon Sumito Pharma Co., Ltd., priority 2008, dated 2011)
Values belong to the compound of their own block, whether it stands above or below them.

The chains behind the UniProt entries cited, without tags or fusion partners.
UniProt O70528, whole entry: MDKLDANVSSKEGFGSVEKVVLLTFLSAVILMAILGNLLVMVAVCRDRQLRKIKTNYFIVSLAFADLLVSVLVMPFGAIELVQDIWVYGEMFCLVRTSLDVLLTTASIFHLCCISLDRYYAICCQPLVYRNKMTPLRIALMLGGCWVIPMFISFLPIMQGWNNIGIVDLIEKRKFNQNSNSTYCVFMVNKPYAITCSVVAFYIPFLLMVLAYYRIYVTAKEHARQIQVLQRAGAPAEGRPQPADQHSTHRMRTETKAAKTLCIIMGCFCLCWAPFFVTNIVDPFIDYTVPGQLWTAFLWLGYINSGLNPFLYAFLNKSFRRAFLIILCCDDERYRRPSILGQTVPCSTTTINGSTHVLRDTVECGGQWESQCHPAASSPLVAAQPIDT

Target: 5-HT4 receptor (Cavia porcellus, UniProt O70528)
Experiment: Serotonin 4 (5-HT4) receptor binding assay
Settings: inhibition of specific binding of 0.1 nM [3H]-GR113808, guinea pig striatum membrane preparations, 37° C., 30 minutes
Method: 5-HT4 receptor binding assay and preparations of receptor membrane preparations were carried out according to a method of Grossman et al. [see British J. Pharmacol., (1993) 109, 618].
Slc-Hartley guinea pigs (body weight 300 to 400 g) were decapitated to remove brain rapidly, and striatum was isolated. To the obtained tissues were added fifteenfold of Hepes buffer (50 mM, pH7.4, 4° C.), and the mixture was homogenized by Teflon® homogenizer and centrifuged at 48,000×g (4° C.) for 15 minutes. To the resulting precipitate was added Hepes buffer (1 ml) to 30 mg by wet weight of tissues, and the mixture was suspended to give receptor membrane preparations.
0.1 nM [^3H]-GR113808 {chemical name: [1-[2-(methylsulfonylamino)ethyl]-4-piperidinyl]methyl 1-methylindole-3-carboxylate}, receptor membrane preparations, and Hepes buffer (50 mM, pH7.4, 4° C., 1 ml) containing test compounds or 30 μM serotonin were placed in an assay tube, and incubated at 37° C. for 30 minutes. On quenching the reaction, the mixture was rapidly filtered on whatman GF/B filter, which was presoaked in 0.1% polyethyleneimine for 1 hour, by using Brandel cell Harvester, and washed with ice-cooled 50 mM Tris-HCl (pH7.7, 4 ml) three times. To the filter after filtration was added ACS II scintillator, and then a radioactivity was determined by a liquid scintillation counter.
50% inhibition concentrations (IC50) were determined from inhibition rates of test compounds to specific bindings which were obtained by subtracting nonspecific bindings from total binding amounts of [^3H]-GR113808. […] The term “test compound” in Table means the following Example number.

IC50 (tested form: 3/2 fumarate): 2.8 nM
Compound: CCOc1cc(N)c(Cl)cc1C(=O)NCC1CN(CC2CCN(C(=O)/C=C/c3ccco3)CC2)CCO1 (stereo not drawn)

IC50: 3.53 nM
Compound: CCOc1cc(N)c(Cl)cc1C(=O)NCC1CN(CC2CCN(C(=O)/C=C/c3cccs3)CC2)CCO1 (stereo not drawn)

IC50 (tested form: 1.5 fumarate): 5.54 nM
Compound: CCOc1cc(N)c(Cl)cc1C(=O)NCC1CN(CC2CCN(C(=O)/C=C/C3CC3)CC2)CCO1 (stereo not drawn)
